Values of other authors in patent US7879861B2, “Combi-molecules having EGFR and DNA targeting properties” (priority 2005, dated 2011).

Tested on: metastatic breast cancer
Conditions: single agent; cited from earlier work

## Herceptin: a humanized antibody against erbB2
  response rate: 22%
